Assay results reported in PubChem BioAssay AID800 (PCMD, 2007).
This is a selection; strong and weak results do not stand in their true shares. Activity calls are given as the source filed them. Rule as the data show it: active = inhibition above about 40%; inactive = the rest.

Protein sequences, listed by entry. Tags and fused reporters are not part of them. Lines headed by an entry give the natural chain unless they say otherwise; changes in a name come on top.
UniProt P00748: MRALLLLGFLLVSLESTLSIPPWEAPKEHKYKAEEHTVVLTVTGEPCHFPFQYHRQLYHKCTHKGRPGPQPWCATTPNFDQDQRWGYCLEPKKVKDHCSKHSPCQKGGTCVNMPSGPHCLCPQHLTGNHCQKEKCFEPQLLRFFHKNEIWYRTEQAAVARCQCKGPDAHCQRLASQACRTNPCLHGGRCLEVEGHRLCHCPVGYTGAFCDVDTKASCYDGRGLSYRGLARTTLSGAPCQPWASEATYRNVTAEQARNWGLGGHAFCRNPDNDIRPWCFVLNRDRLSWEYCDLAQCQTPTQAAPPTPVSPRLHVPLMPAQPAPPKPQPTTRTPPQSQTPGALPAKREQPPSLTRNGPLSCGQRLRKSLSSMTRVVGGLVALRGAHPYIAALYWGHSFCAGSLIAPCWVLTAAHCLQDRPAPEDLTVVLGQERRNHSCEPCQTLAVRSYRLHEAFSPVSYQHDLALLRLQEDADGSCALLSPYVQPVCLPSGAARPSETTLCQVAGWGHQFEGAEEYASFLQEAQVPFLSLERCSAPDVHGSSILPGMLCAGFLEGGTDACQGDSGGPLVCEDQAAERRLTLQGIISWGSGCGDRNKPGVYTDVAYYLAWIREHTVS

Target: Coagulation factor XII (Homo sapiens) (UniProt P00748)
Experiment: coagulation factor XIIa activity inhibition – biochemical, 1536-well, primary screen (AID 800);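 also: 0% = enzyme with no compound and 100% = blank without enzyme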
Details: purified FXIIa, Boc-QGR-AMC fluorogenic substrate, 2 h; at 5 µM; active compounds read high

Compound	inhibition
O=[As](O)(c1ccccc1Br)c1ccccc1Br	inactive: 3.15%
O=C(OC1CN2CCC1CC2)c1ccc(Cl)cc1 (stereo unspecified)	inactive: 10.7%
COc1cc(C(=O)NCC2(N3CCOCC3)CCCCC2)cc(Cl)c1OC(C)C	inactive: 0.14%
O=[As](O)(O)c1cccnc1	inactive: 0.43%
O=[As](O)(c1cccc(O)c1)c1cccc(O)c1	inactive: 6.3%
Cc1cccc(OCC(=O)OC2CN3CCC2CC3)c1 (stereo unspecified)	inactive: 12.4%
Nc1cccc2c([As](=O)(O)O)cccc12	inactive: 7.2%
Cc1ccc(NCCc2c([N+](=O)[O-])cc([N+](=O)[O-])cc2[N+](=O)[O-])cc1	inactive: 8.3%
CCCOP(=S)(Nc1nc(N)cc(=O)[nH]1)OCCC	inactive: 5.64%
CCOP(=O)(Nc1cccc2ccccc12)OCC	inactive: -0.85%
COc1cc(C2NCCC3(OCCO3)C2(C)C)cc(OC)c1OC (stereo unspecified)	inactive: 4.79%
O=P(Nc1nccs1)(c1ccccc1)c1nc2ccccc2s1 (stereo unspecified)	inactive: 6.4%
O=P(Nc1nccs1)(Oc1ccccc1)Oc1ccccc1	inactive: 11.7%
CCOP1(=S)c2c(C)nn(CCC#N)c2N=C(c2ccccc2F)N1C (stereo unspecified)	inactive: 7.76%
CS(=O)(=O)c1cc([N+](=O)[O-])c2no[n+]([O-])c2c1	inactive: 4.94%
O=C(O)COc1ccc([As](=O)(O)O)cc1[N+](=O)[O-]	inactive: 6.65%
Nc1ccccc1[As](=O)(O)c1ccccc1	inactive: 9.99%
NC(=O)Nc1ccc([As](=O)(O)O)cc1	inactive: 8.83%
CN(C(=O)Cc1ccccc1)[C@@H]1CC[C@]2(CCCO2)C[C@H]1N1CCCC1	inactive: 4.87%
CCOP1(=S)c2c(C)nn(CCC#N)c2N=C(c2ccc(F)cc2)N1C (stereo unspecified)	inactive: 11.7%
O=[N+]([O-])c1ccc2c(c1)nnn2O	inactive: 11.1%
